Values of other authors as cited in US20250085295A1, “METHODS FOR MEASURING INTERACTIONS BETWEEN PROTEINS COMPRISING AN FC PORTION AND PARTICLES” (NANOTEMPER TECHNOLOGIES GMBH, priority 2023, published 2025).

Target: IgA antibody
Settings: literature DOI cited; read-out: affinity of Fc-binding peptide to IgA antibody; cited from earlier work

Sequence | Kd
HMVCLAYRGRPVCFAL | 33 nM
HMVCLSYRGRPVCFSL | 16 nM
